# The entries are a selection whose mix differs from that of the whole data set. Inconclusive results are not listed. Activity calls are given as the source filed them. Calls follow the shape of the dose curve; as a rule, active = well fitted inhibition curve with a large enough effect; inconclusive = small, poorly fitted or top-dose-only effect; inactive = no such curve, though single readings can be large or run the other way.
# Protein sequences, listed by entry. Tags and fused reporters are not part of them.
# UniProt O95398, whole entry: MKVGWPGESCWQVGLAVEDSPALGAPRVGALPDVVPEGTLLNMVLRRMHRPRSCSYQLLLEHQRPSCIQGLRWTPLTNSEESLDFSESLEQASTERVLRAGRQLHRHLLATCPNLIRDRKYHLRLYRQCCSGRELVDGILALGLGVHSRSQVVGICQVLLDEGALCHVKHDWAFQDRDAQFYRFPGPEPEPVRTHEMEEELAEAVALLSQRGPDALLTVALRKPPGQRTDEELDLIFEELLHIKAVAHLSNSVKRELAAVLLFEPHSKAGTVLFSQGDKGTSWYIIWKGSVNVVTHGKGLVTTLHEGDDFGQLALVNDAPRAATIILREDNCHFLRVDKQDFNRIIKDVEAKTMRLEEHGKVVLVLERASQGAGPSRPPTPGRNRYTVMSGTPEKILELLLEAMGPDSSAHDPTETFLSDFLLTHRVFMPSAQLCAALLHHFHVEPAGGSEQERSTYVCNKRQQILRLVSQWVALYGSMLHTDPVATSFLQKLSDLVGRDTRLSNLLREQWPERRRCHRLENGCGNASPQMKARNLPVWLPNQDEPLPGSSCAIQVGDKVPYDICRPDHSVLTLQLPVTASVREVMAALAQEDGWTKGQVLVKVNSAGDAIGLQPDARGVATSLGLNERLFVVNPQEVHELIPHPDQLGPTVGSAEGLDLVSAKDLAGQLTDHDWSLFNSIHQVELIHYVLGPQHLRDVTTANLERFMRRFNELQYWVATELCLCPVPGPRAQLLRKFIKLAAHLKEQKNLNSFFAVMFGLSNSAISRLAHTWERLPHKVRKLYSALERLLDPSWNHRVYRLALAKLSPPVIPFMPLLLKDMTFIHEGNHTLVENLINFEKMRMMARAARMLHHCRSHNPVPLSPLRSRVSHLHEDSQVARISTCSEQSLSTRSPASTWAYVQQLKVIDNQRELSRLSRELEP
# Target: Rap guanine nucleotide exchange factor 3 (Homo sapiens) (UniProt O95398)
# Assay: qHTS for Antagonist of cAMP-regulated guanine nucleotide exchange factor 3 (EPAC1): primary screen;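 also: plate controls were vehicle for no effect and positive control for full effect; nearly all actives have a fitted effect of over 50% in size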
# Conditions: EPAC1 GEF assay, Rap1b-BODIPY-GDP exchange fluorescence; at 115 µM (top of the series)
# Excerpt: In multi-cellular eukaryotic organisms, the effects of cAMP are transduced by two ubiquitously-expressed intracellular cAMP receptors, the classic protein kinase A/cAMP-dependent protein kinase (PKA/cAPK) and the more recently discovered exchange protein directly activated by cAMP/cAMP-regulated guanine nucleotide exchange factor (EPAC/cAMP-GEF). Both PKA and EPAC are ubiquitously expressed in all tissues, and an increase in intracellular cAMP levels will lead to the activation of both PKA and EPAC. Therefore, careful dissections of the individual role and relative contribution of EPAC and PKA within the overall cAMP signaling in various model systems are critical for further elucidating the mechanism of cAMP signaling. To date no EPAC-specific antagonists and agonist, as well as isoform-specific agonists have been reported, and developing EPAC-specific pharmacological probes to determine the physiological functions that EPAC play in the overall cAMP-mediated signaling remains a major challenge within the research field. Furthermore, identified regulators of EPAC may lead to new mechanism-based therapeutic strategies specifically targeting the EPAC / cAMP-signaling components as EPAC has been implicated to play important roles in major human pathological conditions such as diabetes, heart disease, and cancer. This qHTS will be used to screen the Molecular Libraries Small Molecule Repository (MLSMR) as a concentration-titration series using the NCGC unique quantitative screening (qHTS) platform to find inhibitors for EPAC1. In addition, this assay will also be used as a counterscreen for the EPAC2 qHTS. This fluorescent based assay is developed and validated for EPAC1 that measures exchange using EPAC effector Rap1 complex with BODIPY-GDP, a GDP analog with a tethered fluorophores. Inhibitors are identified by monitoring the change in fluorescence signal as the exchanged free BODIPY-GDP has a reduced fluorescence compared to Rap1-bound BODIPY-GDP. Decrease in signal (inhibition) is the desired outcome for the EPAC1 antagonist while no activity in this assay is desired for the EPAC2 antagonist counterscreen. de Rooij, J., Zwartkruis, F. J., Verheijen, M. H., Cool, R. H., Nijman, S. M., Wittinghofer, A., and Bos, J.L. (1998) Nature 396, 474-477 [2] Kawasaki, H., Springett, G. M., Mochizuki, N., Toki, S., Nakaya, M., Matsuda, M., Housman, D. E., and Graybiel, A. M. (1998) Science 282, 2275-2279 NIH Chemical Genomics Center [NCGC] NIH Molecular Libraries Probe Centers Network [MLPCN] MLPCN Grant: NS066510 Assay Submitter (PI): Xiaodong Cheng, The University of Texas, Medical Branch
# Briefly, three uL of reagents (100 nM EPAC1, 250 nM RAP1B-BODIPY-GDP, 50 uM GDP) were dispensed into a 1536-well Greiner black solid-bottom medium binding assay plate. Controls and test compounds (23 nL) were transferred to the plate via a Kalypsys pin tool equipped with a 1536-pin array. The plates were centrifuged at 1,000 rpm for 15 seconds followed by 5 minute incubation at room temperature. The assay plates were read at 5 minute intervals for 30 minutes in the ViewLux plate reader using 480nm excitation and 540nm emission filters. The results were normalized to the […] positive control ATA and DMSO.
row,SMILES,"activity change, negative = inhibition"
1,CN(C)C(=O)c1c([N+](=O)[O-])cc([N+](=O)[O-])cc1[N+](=O)[O-],inactive: -22.1%
2,CP(=O)(Nc1ccc(Cl)cc1)Oc1ccc(F)cc1 (stereo not drawn),inactive: 1.7%
3,COc1ccccc1OP(C)(=O)Nc1ccccc1Br (stereo not drawn),inactive: 5.96%
4,CC(C)(C)c1ccc(OP(C)(=O)O)cc1,inactive: 15%
5,CCc1ccc(OP(C)(=O)Nc2cccnc2)cc1 (stereo not drawn),inactive: 20.6%
6,CP(=O)(Oc1ccccc1)N1CCOC1=O (stereo not drawn),inactive: 14.5%
7,O=C(OCCCN1CCCC1)C(O)(c1ccccc1)C1CCCCC1 (stereo not drawn),inactive: 19.1%
8,COc1ccccc1OP(C)(=O)Nc1c(C)n(C)n(-c2ccccc2)c1=O (stereo not drawn),inactive: 4.49%
9,COc1ccc(OP(C)(=O)Nc2ccc(Br)cc2)cc1 (stereo not drawn),inactive: -3.86%
10,CCN(CC)CC(O)COC(=O)C(O)(c1ccccc1)C1CCCCC1 (stereo not drawn),inactive: -2%
11,CP(=O)(OC12CC3CC(CC(C3)C1)C2)OC12CC3CC(CC(C3)C1)C2,inactive: 9.32%
12,CCOC(=O)c1ccc(NP(C)(=O)Oc2ccc(Cl)cc2)cc1 (stereo not drawn),inactive: 1.24%
13,Nc1ccc2c(ccc3cccnc32)n1.O=[N+]([O-])c1cc([N+](=O)[O-])c(O)c([N+](=O)[O-])c1,inactive: -7.07%
14,CCCCCCCCCCCCCCCC1C[N+](C)(C)CCOP(C)(=O)O1 (stereo not drawn),inactive: -21.9%
15,CP(=O)(Nc1ccc(Cl)cc1Cl)Oc1ccccc1 (stereo not drawn),inactive: -12.5%
16,CP(=O)(OCCOc1ccccc1)OCCOc1ccccc1,inactive: -3.35%
17,COc1ccc(OP(C)(=O)Nc2ccccc2Br)cc1 (stereo not drawn),inactive: 8.19%
18,COc1ccccc1OP(C)(=O)Nc1ccc(C)c(C)c1 (stereo not drawn),inactive: -6.58%
19,CCc1ccc(OP(C)(=O)O)cc1,inactive: -10.9%
20,COc1ccccc1OP(C)(=O)Nc1ccc(C)cc1C (stereo not drawn),inactive: -4.33%

row,SMILES,"activity change, negative = inhibition"
1,CP(=O)(Nc1ccccn1)Oc1ccccc1 (stereo not drawn),inactive: 0.558%
2,Cc1c(NP(C)(=O)Oc2ccc(C(C)C)cc2)c(=O)n(-c2ccccc2)n1C (stereo not drawn),inactive: 8.57%
3,O=[N+]([O-])c1cc([N+](=O)[O-])c(Nc2ccccn2)c([N+](=O)[O-])c1,inactive: -7.04%
4,CN(C)CCOC(=O)C(O)(c1ccccc1)C1CCCC1 (stereo not drawn),inactive: 3.73%
5,COc1ccc(OP(C)(=O)Nc2ccccn2)cc1 (stereo not drawn),inactive: 13.4%
6,COc1ccccc1OP(C)(=O)Nc1ccc(Br)cc1 (stereo not drawn),inactive: 1.68%
7,O=C(OCCN1CCN(CCOCc2ccccc2)CC1)C(O)(c1ccccc1)c1ccccc1,inactive: -3.21%
8,CP(=O)(Nc1ccccc1F)Oc1ccccc1 (stereo not drawn),inactive: 14.7%
9,CP(=O)(Nc1ccccc1)Oc1ccc(F)cc1 (stereo not drawn),inactive: 9.01%
10,CCN(CC)CCCOC(=O)C(O)(c1ccccc1)C1CCCCC1 (stereo not drawn),inactive: 5.2%
11,Cc1c([N+](=O)[O-])cc([N+](=O)[O-])c(Br)c1[N+](=O)[O-],inactive: -6.35%
12,COc1ccc(OP(C)(=O)Nc2ccc(SC(F)(F)F)cc2)cc1 (stereo not drawn),inactive: -16.4%
13,CCOC(=O)c1ccc(NP(C)(=O)Oc2ccc(F)cc2)cc1 (stereo not drawn),inactive: 20.7%
14,Cc1c(C(c2ccc3c(c2)OCO3)c2c(C)n(C)n(-c3ccccc3)c2=O)c(=O)n(-c2ccccc2)n1C.O=[N+]([O-])c1cc([N+](=O)[O-])c(O)c([N+](=O)[O-])c1,inactive: -0.904%
15,Cc1cc(-c2cccc3ccccc23)c(C)cn1.O=[N+]([O-])c1cc([N+](=O)[O-])c(O)c([N+](=O)[O-])c1,inactive: -19.5%
16,O=[N+]([O-])c1ccc(OP2(=O)COCCO2)cc1 (stereo not drawn),inactive: 23.9%
17,COc1ccc(NP(C)(=O)Oc2ccccc2OC)cc1 (stereo not drawn),inactive: -7.96%
18,CN(C)CCOC(=O)C(O)(c1ccccc1)C1CCCCC1 (stereo not drawn),inactive: -8.67%
19,COc1ccc(OP(C)(=O)Nc2cccc(Br)c2)cc1 (stereo not drawn),inactive: -4.42%
20,Cc1ccccc1NP(C)(=O)Nc1ccccc1C,inactive: 5.83%

row,SMILES,"activity change, negative = inhibition"
1,CP(=O)(Nc1ccc2c(c1)OCCO2)Oc1ccccc1 (stereo not drawn),inactive: -1.55%
2,CCOP(C)(=S)SCC(=O)NC(C)(CC)C(=O)O (stereo not drawn),inactive: -0.526%
3,CP(=O)(Nc1ccc(SC(F)(F)F)cc1)Oc1ccc(F)cc1 (stereo not drawn),inactive: -18.3%
4,Cc1nc2ccc3ccccc3c2s1.O=[N+]([O-])c1cc([N+](=O)[O-])c(O)c([N+](=O)[O-])c1,inactive: -15%
5,O=[N+]([O-])c1cc([N+](=O)[O-])c(-c2cnn(-c3ccccc3)c2)c([N+](=O)[O-])c1,inactive: -4.98%
6,CN(Cc1cccnc1)C(=O)COc1ccc(Cl)c(Cl)c1.O=[N+]([O-])c1cc([N+](=O)[O-])c(O)c([N+](=O)[O-])c1,inactive: -4.13%
7,O=[N+]([O-])c1cc([N+](=O)[O-])c(-n2nnc3ccccc32)c([N+](=O)[O-])c1,inactive: -12.6%
8,CCCOc1ccc(NP(C)(=O)Oc2ccc(Cl)cc2)cc1 (stereo not drawn),inactive: -15%
9,CP(=O)(Nc1ccc(SC(F)(F)F)cc1)Oc1ccccc1 (stereo not drawn),inactive: -16.2%
10,COc1ccc(-c2ccccn2)cc1.O=[N+]([O-])c1cc([N+](=O)[O-])c(O)c([N+](=O)[O-])c1,inactive: -15.3%
11,COc1ccccc1OP(C)(=O)Nc1c(C)cccc1C (stereo not drawn),inactive: -7.03%
12,CN1CCCCC1COC(=O)C1(O)c2ccccc2CCc2ccccc21 (stereo not drawn),inactive: -19.7%
13,O=[N+]([O-])c1cc([N+](=O)[O-])c(Nc2nnnn2CCO)c([N+](=O)[O-])c1,inactive: -4.91%
14,CC1=NCCc2c1[nH]c1ccccc21.O=[N+]([O-])c1cc([N+](=O)[O-])c(O)c([N+](=O)[O-])c1,inactive: 11.4%
15,CP(=O)(Nc1cccc(Br)c1)Oc1ccccc1 (stereo not drawn),inactive: -0.538%
16,Cc1ccc(C)c(NP(C)(=O)Oc2ccccc2)c1 (stereo not drawn),inactive: -6.1%
17,Cc1cc(C)cc(OP(C)(=O)Nc2ccc(C)cc2C)c1 (stereo not drawn),inactive: -9.94%
18,CCOC(=O)c1ccc(NP(C)(=O)Oc2cc(C)cc(C)c2)cc1 (stereo not drawn),inactive: -27.2%

# — PubChem BioAssay AID720709 (National Center for Advancing Translational Sciences (NCATS), 2013)
